We go through one compound from PubChem BioAssay AID1347084 (National Center for Advancing Translational Sciences (NCATS), 2019).

This assay can be described thus: qHTS for Inhibitors of the Functional Ribonucleoprotein Complex (vRNP) of Lymphocytic Choriomeningitis Arenaviruses (LCMV): LCMV Confirmatory Screen - GLuc reporter signal. The following applies: LCMV minigenome vRNP, Gaussia luciferase reporter. On the technique in general: qHTS replaces the single test concentration by a dilution series.

Only a part is listed here, and it is no random draw. Inconclusive results are not listed. The source made the active and inactive calls. The call rests on the fitted dose curve.

Turning to `CCC(=O)N(c1ccccc1)C1(COC)CCN(CCc2cccs2)CC1`, the Potency is active: 49.8 µM.
